According to article PMC6476873:

Target: P10636
Test: co-sedimentation; pelleting assay: 10 μM Tau^RDΔK induced to aggregate with 2.5 μM heparin in PBS, 1 mM DTT, 37 °C, up to 24 h; centrifuged at 100,000×g; supernatant and pellet on SDS-PAGE, Coomassie, densitometry

B1: Tau^RDΔK, Tau repeat domain (K18, residues 244–372) with the FTDP-17 mutation ΔK280, recombinant (protein)
chain: QTAPVPMPDLKNVKSKIGSTENLKHQPGGGKVQIINKLDLSNVQSKCGSKDNIKHVPGGGSVQIVYKPVDLSKVTSKCGSLGNIHHKPGGGQVEVKSEKLDFKDRVQSKIGSLDNITHVPGGGNKKIE
percent of the protein in the insoluble pellet (aggregates): ~ 60% of the protein formed aggregates
